The values that follow come from PMC12133307, “Structure, kinetics, and mechanism of Pseudomonas putida sulfoquinovose dehydrogenase, the first enzyme in the sulfoglycolytic Entner-Doudoroff pathway” (Biochemical Journal, 2025).

Sequences of proteins named here, by UniProt entry; tags and fusion partners are left off. A change or cut given only in a name is not applied to a line headed by its entry.
UniProt P0DOV5: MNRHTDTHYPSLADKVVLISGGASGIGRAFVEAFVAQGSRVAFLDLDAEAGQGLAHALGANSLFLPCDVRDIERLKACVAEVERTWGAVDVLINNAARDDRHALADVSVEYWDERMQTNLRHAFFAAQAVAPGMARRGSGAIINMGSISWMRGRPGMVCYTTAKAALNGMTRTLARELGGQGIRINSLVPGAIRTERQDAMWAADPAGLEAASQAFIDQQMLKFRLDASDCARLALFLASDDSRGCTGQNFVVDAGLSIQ

The target of this experiment is T1, PpSQDH (P. putida SQ dehydrogenase; PpSQ1_00090) (Pseudomonas putida, UniProt P0DOV5).
T1 construct: gene PpSQ1_00405
To be noted: 5 mM ligand, 50 mM Tris pH 7.5, 300 mM NaCl.

As for `NC(=O)c1ccc[n+]([C@@H]2O[C@H](COP(=O)(O)OP(=O)(O)OC[C@H]3O[C@@H](n4cnc5c(N)ncnc54)[C@H](OP(=O)(O)O)[C@@H]3O)[C@@H](O)[C@H]2O)c1` [NADP^+], the Tm decrease is -4 °C.
